Results published in US20220378791A1, “JAK1 INHIBITORS FOR THE TREATMENT OF MYELODYSPLASTIC SYNDROMES” (Incyte Corporation, priority 2014, published 2022).

The chains behind the UniProt entries cited, without tags or fusion partners. Residues count along the entry.
UniProt P23458, 849-1154: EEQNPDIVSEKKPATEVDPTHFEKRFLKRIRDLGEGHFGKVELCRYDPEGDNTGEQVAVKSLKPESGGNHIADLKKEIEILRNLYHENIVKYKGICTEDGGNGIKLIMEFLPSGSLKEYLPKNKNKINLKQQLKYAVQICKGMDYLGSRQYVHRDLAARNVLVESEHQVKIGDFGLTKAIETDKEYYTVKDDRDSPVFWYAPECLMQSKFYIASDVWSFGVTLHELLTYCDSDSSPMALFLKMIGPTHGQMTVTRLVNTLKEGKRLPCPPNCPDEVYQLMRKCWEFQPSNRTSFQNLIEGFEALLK

Target: T1, human JAK1 (a.a. 837-1142) (Homo sapiens, UniProt P23458)
T1 construct: human JAK1 (a.a. 837-1142); His tag (N); made in house; host or cells: insect cells (baculovirus)
Test: In vitro JAK kinase assay (HTRF), JAK1
Assay type: biochemical
Conditions: 1 mM ATP
Protocol: Compounds herein were tested for inhibitory activity of JAK targets according to the following in vitro assay described in Park et al., Analytical Biochemistry 1999, 269, 94-104. The catalytic domains of human JAK1 (a.a. 837-1142), JAK2 (a.a. 828-1132) and JAK3 (a.a. 781-1124) with an N-terminal His tag were expressed using baculovirus in insect cells and purified. The catalytic activity of JAK1, JAK2 or JAK3 was assayed by measuring the phosphorylation of a biotinylated peptide. The phosphorylated peptide was detected by homogenous time resolved fluorescence (HTRF). […] Reactions were carried out at room temperature for 1 hour and then stopped with 20 μL 45 mM EDTA, 300 nM SA-APC, 6 nM Eu-Py20 in assay buffer (Perkin Elmer, Boston, Mass.). Binding to the Europium labeled antibody took place for 40 minutes and HTRF signal was measured on a Fusion plate reader (Perkin Elmer, Boston, Mass.).

For `CN(C)Cc1cc(F)cc(OC2CCN(CC(CC#N)n3cc(-c4ncnc5[nH]ccc45)cn3)CC2)c1` (single isomer, unassigned) [Example 12, 4-(4-{3-[(Dimethylamino)methyl]-5-fluorophenoxy}piperidin-1-yl)-3-[4-(7H-pyrrolo[2,3-d]pyrimidin-4-yl)-1H-pyrazol-1-yl]butanenitrile], the IC50 was < 10 nM.
